This is a selection; strong and weak results do not stand in their true shares. Some salts and complexes are drawn in separate pieces, as the source files them; their charges need not balance. Calls of active or inactive are those of the source.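 How the source made its calls: active means inhibition above a per-plate cutoff, the mean inhibition of test compounds on that plate plus 3 SD (cut at about 49% in these data); inactive means the rest.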

By UniProt entry, the sequences of proteins in these tests, tags left out.
UniProt Q96RJ0, whole entry: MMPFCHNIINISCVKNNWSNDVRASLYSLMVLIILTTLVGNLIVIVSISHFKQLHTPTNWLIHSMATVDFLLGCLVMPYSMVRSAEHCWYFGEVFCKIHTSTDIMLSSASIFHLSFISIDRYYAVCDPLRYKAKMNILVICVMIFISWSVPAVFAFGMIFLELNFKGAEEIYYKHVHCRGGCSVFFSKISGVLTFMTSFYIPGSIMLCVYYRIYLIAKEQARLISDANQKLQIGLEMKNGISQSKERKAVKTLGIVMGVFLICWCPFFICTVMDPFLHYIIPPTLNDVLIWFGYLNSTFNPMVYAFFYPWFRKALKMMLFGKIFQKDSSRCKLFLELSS

The assay concerns the target Trace amine-associated receptor 1 (Homo sapiens) (UniProt Q96RJ0). The assay can be described thus: blockers of beta-PEA-driven TAAR1 calcium signal – Fluo-8 calcium fluorescence, CHO RD-HGA16 cells, primary screen (AID 624466).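 Further: 0% = DMSO plus EC80 beta-PEA response and 100% = DMSO alone without agonist.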 The following applies: CHO RD-HGA16 TAAR1, Fluo-8 calcium fluorescence, antagonist; at 3 µM; hits give high values.
As a reminder, the inhibition is the relative decrease from the control value, in per cent. Turning to `COc1ccc(OP(C)(=O)Nc2cccc(Br)c2)cc1` (stereo unspecified), the inhibition is inactive: -0.13%. The value for `COc1ccc(NP(C)(=O)Oc2ccccc2OC)cc1` (stereo unspecified) was inactive: 0.28%; that for `CN(C)CCOC(=O)C(O)(c1ccccc1)C1CCCCC1` (stereo unspecified) was inactive: -8.95%. The value for `O=[N+]([O-])c1cc([N+](=O)[O-])c(NCC2CCS(=O)(=O)C2)c([N+](=O)[O-])c1` (stereo unspecified) was inactive: -2.97%. The value for `Cc1cc(-c2cccc3ccccc23)c(C)cn1.O=[N+]([O-])c1cc([N+](=O)[O-])c(O)c([N+](=O)[O-])c1` was inactive: -17.1%. As for `O=[N+]([O-])c1ccc(OP2(=O)COCCO2)cc1` (stereo unspecified), the inhibition is inactive: 5.11%.

As for `Cc1c(C(c2ccc3c(c2)OCO3)c2c(C)n(C)n(-c3ccccc3)c2=O)c(=O)n(-c2ccccc2)n1C.O=[N+]([O-])c1cc([N+](=O)[O-])c(O)c([N+](=O)[O-])c1`, the inhibition is inactive: -8.93%.

`CP(=O)(Nc1ccc(SC(F)(F)F)cc1)Oc1ccc(F)cc1` (stereo unspecified): the inhibition was inactive: 6.2%. `CCOP(=O)(CC)OCC`: the inhibition is inactive: 0.87%. The value for `CCOP(C)(=S)SCC(=O)NC(C)(CC)C(=O)O` (stereo unspecified) was inactive: 10.7%; that for `CP(=O)(Nc1ccc2c(c1)OCCO2)Oc1ccccc1` (stereo unspecified) was inactive: 1.19%. In the case of `O=[N+]([O-])c1cc([N+](=O)[O-])c(C(F)(F)F)c([N+](=O)[O-])c1O` it was inactive: -10.3%.

`Cc1ccccc1NP(C)(=O)Nc1ccccc1C`: the inhibition is inactive: -0.92%.

For the compound `O=[N+]([O-])c1cc([N+](=O)[O-])c(Nc2ccc(Cl)cc2)c([N+](=O)[O-])c1`, the inhibition is inactive: 35.2%.

In the case of `CC(C)c1ccc(OP(C)(=O)Nc2ccc(SC(F)(F)F)cc2)cc1` (stereo unspecified), the inhibition is inactive: 0.06%. The value for `CP(=O)(Nc1ccccc1F)Oc1ccccc1` (stereo unspecified) was inactive: -24%; that for `O=C(OCCN1CCN(CCOCc2ccccc2)CC1)C(O)(c1ccccc1)c1ccccc1` was inactive: 10.2%; that for `O=C(OC1CN2CCC1CC2)c1ccc([N+](=O)[O-])cc1` (stereo unspecified) was inactive: -29.4%. For `COc1ccc2c(c1O)-c1c(O)c(OC)cc3c1[C@H](C2)[N+](C)(C)CC3.O=[N+]([O-])c1cc([N+](=O)[O-])c([O-])c([N+](=O)[O-])c1[O-]`, the inhibition is inactive: 14.7%. The value for `CCN(CC)CCCNc1ccccc1[N+](=O)[O-].O=[N+]([O-])c1cc([N+](=O)[O-])c(O)c([N+](=O)[O-])c1` was inactive: -2.59%; that for `COc1ccc(OP(C)(=O)Nc2ccc(SC(F)(F)F)cc2)cc1` (stereo unspecified) was inactive: 4.41%. The value for `CCOC(=O)c1ccc(NP(C)(=O)Oc2ccc(F)cc2)cc1` (stereo unspecified) was inactive: 8.39%. The value for `CCN(CC)CCCOC(=O)C(O)(c1ccccc1)C1CCCCC1` (stereo unspecified) was inactive: -9.35%; that for `Cc1c([N+](=O)[O-])cc([N+](=O)[O-])c(Br)c1[N+](=O)[O-]` was inactive: -15.8%. For `CCCCCOc1ccc(NP(C)(=O)Oc2ccc(Cl)cc2Cl)cc1` (stereo unspecified), the inhibition is inactive: -47.1%. As to `O=[N+]([O-])c1cc([N+](=O)[O-])c(OC2CCCCC2O)c([N+](=O)[O-])c1` (stereo unspecified), the inhibition is inactive: -2.32%.

In the case of `CP(=O)(Nc1ccccc1)Oc1ccc(F)cc1` (stereo unspecified), the inhibition was inactive: -22.9%. In the case of `O=C(O)c1cccc(Nc2c([N+](=O)[O-])cc([N+](=O)[O-])cc2[N+](=O)[O-])c1` it was inactive: -26.4%. The value for `CC1=NCCc2c1[nH]c1ccccc21.O=[N+]([O-])c1cc([N+](=O)[O-])c(O)c([N+](=O)[O-])c1` was inactive: -14.1%; that for `COc1ccccc1OP(C)(=O)Nc1cccc(Br)c1` (stereo unspecified) was inactive: -6.79%. The value for `Cc1cc(C)cc(OP(C)(=O)Nc2ccc(C)cc2C)c1` (stereo unspecified) was inactive: 2.73%.

For the compound `CCOC(=O)c1ccc(NP(C)(=O)Oc2cc(C)cc(C)c2)cc1` (stereo unspecified), the inhibition was inactive: -6.87%. The value for `CP(=O)(Nc1cccc(Br)c1)Oc1ccccc1` (stereo unspecified) was inactive: 4.29%. In the case of `Cc1cc(C)cc(OP(C)(=O)Nc2ccccn2)c1` (stereo unspecified) it was inactive: -3.16%; in that of `Cc1ccc(C)c(NP(C)(=O)Oc2ccccc2)c1` (stereo unspecified), inactive: 7.75%. The value for `O=[N+]([O-])c1cc([N+](=O)[O-])c(-n2nnc3ccccc32)c([N+](=O)[O-])c1` was inactive: 1.53%. Take `CN(Cc1cccnc1)C(=O)COc1ccc(Cl)c(Cl)c1.O=[N+]([O-])c1cc([N+](=O)[O-])c(O)c([N+](=O)[O-])c1`: the inhibition is inactive: -15.6%. In the case of `O=[N+]([O-])c1cc([N+](=O)[O-])c(-c2cnn(-c3ccccc3)c2)c([N+](=O)[O-])c1` it was inactive: -29.6%; in that of `Cc1nc2ccc3ccccc3c2s1.O=[N+]([O-])c1cc([N+](=O)[O-])c(O)c([N+](=O)[O-])c1`, inactive: -9.47%.

Take `CCOC(=O)C(CC)C1=NC(C)(C)Cc2ccccc21.O=[N+]([O-])c1cc([N+](=O)[O-])c(O)c([N+](=O)[O-])c1` (stereo unspecified): the inhibition is inactive: 6.91%. In the case of `O=[N+]([O-])c1cc([N+](=O)[O-])c(Nc2nnnn2CCO)c([N+](=O)[O-])c1` it was inactive: 4.85%; in that of `CN1CCCCC1COC(=O)C1(O)c2ccccc2CCc2ccccc21` (stereo unspecified), inactive: -5.52%.

Regarding `COc1ccccc1OP(C)(=O)Nc1c(C)cccc1C` (stereo unspecified), the inhibition is inactive: -0.28%. The value for `CP(=O)(Nc1ccc(SC(F)(F)F)cc1)Oc1ccccc1` (stereo unspecified) was inactive: 10.4%; that for `CCCOc1ccc(NP(C)(=O)Oc2ccc(Cl)cc2)cc1` (stereo unspecified) was inactive: -15.8%; that for `COc1ccc(-c2ccccn2)cc1.O=[N+]([O-])c1cc([N+](=O)[O-])c(O)c([N+](=O)[O-])c1` was inactive: -34.6%. On to `CP(=S)(Nn1cnnc1)Oc1ccccc1` (stereo unspecified), for which the inhibition was inactive: -10.1%. In the case of `COc1ccccc1OP(C)(=O)Nc1ccccc1` (stereo unspecified) it was inactive: 17.7%; in that of `CP(=O)(Nc1ccccc1Br)Oc1ccccc1` (stereo unspecified), inactive: 3.56%; in that of `CP(=O)(Oc1ccccc1)OC(c1ccccc1)C(F)(F)F` (stereo unspecified), inactive: -24.2%. In the case of `CP(=O)(Nc1ccc(SC(F)(F)F)cc1)Oc1ccc(Cl)cc1` (stereo unspecified) it was inactive: -23.7%; in that of `Cc1cccc(C)c1OP(C)(=O)Nc1ccc(SC(F)(F)F)cc1` (stereo unspecified), inactive: -7.31%. The value for `Cc1cc(C)cc(OP(C)(=O)Nc2ccc(SC(F)(F)F)cc2)c1` (stereo unspecified) was inactive: 30.2%; that for `CCc1ccc(OP(C)(=O)N2CCN(c3ccc([N+](=O)[O-])cc3)CC2)cc1` (stereo unspecified) was inactive: -3.4%; that for `CP(=O)(NC(=O)Nc1ccccc1)Oc1ccccc1` (stereo unspecified) was inactive: 5.41%.

For `CCOP(C)(=S)SCC(=O)NC(C)C(=O)O` (stereo unspecified), the inhibition is inactive: 4.76%. The value for `O=[N+]([O-])c1cc([N+](=O)[O-])c(O)c([N+](=O)[O-])c1.c1ccc(Oc2ccncc2)cc1` was inactive: -38.3%; that for `CCOC(=O)c1ccc(NP(C)(=O)Oc2ccc(OC)cc2)cc1` (stereo unspecified) was inactive: 0.35%. In the case of `CP(=O)(Nc1ccccn1)Oc1ccc(Cl)cc1` (stereo unspecified) it was inactive: 3.24%; in that of `CCN(CC)CCCOC(=O)C(O)(c1ccccc1)c1ccccc1`, inactive: 4.09%. The value for `COc1ccccc1-c1ccccn1.O=[N+]([O-])c1cc([N+](=O)[O-])c(O)c([N+](=O)[O-])c1` was inactive: -3.93%. For `O=[N+]([O-])c1cc([N+](=O)[O-])c(Nc2cccnc2)c([N+](=O)[O-])c1`, the inhibition is inactive: 11.9%.

Take `Cc1cccc(C)c1OP(C)(N)=O` (stereo unspecified): the inhibition was inactive: -14.6%. `CC(C)(C)c1ccc(OP(C)(=O)Nc2ccc(SC(F)(F)F)cc2)cc1` (stereo unspecified): the inhibition was inactive: 29.1%. Take `O=[N+]([O-])c1ccc2c(c1)C=Nc1ccccc1O2`: the inhibition was inactive: -15%. The value for `CCOC(=O)c1ccc(NP(C)(=O)Oc2ccccc2)cc1` (stereo unspecified) was inactive: 0.32%; that for `Cc1ccc(NP(C)(=O)Oc2ccccc2)c(C)c1` (stereo unspecified) was inactive: -7.06%. In the case of `COc1ccccc1OP(C)(=O)Nc1ccc(C)cc1` (stereo unspecified) it was inactive: 5.12%; in that of `COc1ccc(OP(C)(=O)Nc2cccc(F)c2)cc1` (stereo unspecified), inactive: -7%; in that of `COc1ccccc1OP(C)(=O)Nc1cc(Cl)ccc1C` (stereo unspecified), inactive: 2.28%.

Turning to `Cc1cc(C)cc(OP(C)(N)=O)c1` (stereo unspecified), the inhibition is inactive: -16.8%.
